Measurements taken from patent US11058903B2, “Methods for identifying and treating cachexia or pre-cachexia using an inhibitor of rage” (THE BROAD INSTITUTE, INC., priority 2013, dated 2021).

Legend:
pancreatic cancer cells = experiment: CellTiter Glo cell number assay, chemotherapy with or without soluble RAGE; assay type: cell-based; conditions: treated for 5 days; Gemcitibine alone or with increasing doses of recombinant human soluble RAGE
Excerpt: Anti-RAGE treatment increases sensitivity to chemotherapy in cancer cells.

HSkM cells = experiment: In-Cell Western of myosin heavy chain (MyoHC) content in muscle cells exposed to CI-CM; assay type: cell-based, human; conditions: muscle cells with or without CI-CM, FIGS. 23, 24
Excerpt: FIG. 21 is a chart showing the quantification of myosin heavy chain (MyoHC) content determined by In-Cell Western analysis of in vitro HSkM cells treated with media conditioned by cachexia-inducing MkN1 and G361 cells and in vitro HSkM cells treated with media conditioned by non-cachexia-inducing 293 cells, either in the presence or absence of a MEK/ERK inhibitor PD184352 (PD184).
FIG. 22 is a chart showing the myosin heavy chain (MyoHC) content determined by In-Cell Western analysis of in vitro HSkM cells pre-treated (for 2 days) or not pre-treated with cachexia-inducing conditioned media (“CI-CM”), either in the presence or absence of an ERK1/2 inhibitor, SCH772984 (SCH2984).
FIGS. 23A and 23B are a series of charts showing the dose response of myosin heavy chain (MyoHC) content determined by In-Cell Western analysis of muscle cells treated with a RAGE Anti-Peptide (FIG. 23A) or an anti-RAGE mAb (FIG. 23B), either in the absence or presence of cachexia-inducing conditioned media (CI-CM).
FIG. 24 is a chart showing the dose response of myosin heavy chain (MyoHC) content determined by In-Cell Western analysis of muscle cells treated with a recombinant soluble RAGE, either in the presence of cachexia-inducing conditioned media (CI-CM) or non-cachexia-inducing conditioned media (NCI-CM). […]

rsRAGE: recombinant soluble RAGE that competes with membrane-bound RAGE for binding RAGE ligands
pancreatic cancer cell numbers (CellTiter Glo) (pancreatic cancer cells): reduction
loss of MyoHC in response to CI-CM under RAGE blockade (HSkM cells): inhibit
